Sampled rows, rich in hits. Any-hit rate of the full collection: about 0.46%.
GIV-Gai inh – GIV-Galpha-i interaction inhibition; P08753; Galpha-i3/FITC-GIV peptide fluorescence polarization, 90 min; active compounds read low; scaled: aluminum fluoride 0%, vehicle 100%; percent of control (FP), % (no concentration beside the values); 210,000 compounds, 0.42% hits; AID 1224905;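 active means replicate mean at 85% of control or lower, very high polarization wells dropped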;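 further: wells of about 15 µL received 100 nL stock; the first replicate is given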
HCMV NEC inh – disrupts HCMV UL50-UL53 complex binding. HTRF UL50-UL53 interaction, normalized percent inhibition. 190,000 tested, 0.15% active. AID 1918969. inhibition, % (concentration not given with the values); in the data active = inhibition above about 27%, passing the limit was not always enough
* hit, by the source's call; x = no result given.

SMILES,GIV-Gai inh,HCMV NEC inh
Cc1ccc(NC(=O)CSc2ncc3c(n2)-c2ccc(Cl)cc2N(C)S3(=O)=O)cc1F,103,x
CCc1cc(C(Nc2nc(C)cc(C)n2)c2ccccn2)c(NC(=O)c2ccccc2)s1 (stereo not drawn),114,-30
O=C(O)CCC(=O)Nc1nc2n(n1)C(c1ccccc1)C=C(c1ccccc1)N2 (stereo not drawn),83*,-26
O=C(Nc1nc2n(n1)C(c1ccccc1)C=C(c1ccccc1)N2)c1ccco1 (stereo not drawn),130,-33
CCc1cc2c3c([nH]c2cc1S(=O)(=O)NCC1CCCO1)CCCC3=O (stereo not drawn),101,-36
CCOC(=O)Cn1cc(/C=C2\C(=O)NC(=O)N(c3ccc(Br)cc3)C2=O)c2ccccc21,112,4
CCOC(=O)Cn1cc(/C=C2\C(=O)NC(=O)N(c3ccc(F)cc3)C2=O)c2ccccc21,-36*,x
O=S(=O)(Cc1cccc(C(F)(F)F)c1)NCc1csc(-c2cccs2)n1,105,-26
Cc1[nH]n(-c2ccccc2)c(=O)c1C1=c2ccccc2=NC1=O,x,68*
CCc1cccc2c1=NC(=O)C=2c1c(C)[nH]n(-c2ccccc2)c1=O,104,1
FC(F)(F)c1ccc(-c2noc(Cc3ccccc3)n2)cc1,104,-1
Cc1ccc(S(=O)(=O)N(c2ccccc2)C(F)F)cc1,98,-8
CN(C)C1C(=O)C(C(N)=O)=C(O)C2(O)C(=O)C3=C(O)c4c(O)ccc(Cl)c4C(O)C3CC12 (stereo not drawn),x,-54
C=C1c2cccc(O)c2C(O)=C2C(=O)C3(O)C(O)=C(C(N)=O)C(=O)C(N(C)C)C3C(O)C12 (stereo not drawn),103,104*
Cc1ccc(N2C(=O)NC(=O)/C(=C/c3cc(Br)c(O)cc3O)C2=O)cc1,-71*,-44
Cc1ccc(N2C(=O)NC(=O)/C(=C\c3ccc(O)c(Br)c3)C2=O)cc1,110,-3
COc1ccc(Nc2nc(C(=O)NCc3ccccc3)cs2)cc1,x,-1
CC1CN(Cc2cc(O)c(CN3CC(C)OC(C)C3)cc2O)CC(C)O1 (stereo not drawn),103,-18
O=C(C1=C(O)C(=O)N(c2ccccn2)C1c1ccccc1)c1cccs1 (stereo not drawn),x,-34
Cc1nnc(N2C(=O)C(O)=C(C(=O)c3cccs3)C2c2ccccc2F)s1 (stereo not drawn),-9.4*,-61
CNc1nc(SCc2c(C)noc2C)nc2ccccc12,x,51*
Cc1noc(C)c1CSc1nc2ccccc2c(=O)n1C(C)C,x,-9
CSc1nnc2c(n1)OC(c1ccc([N+](=O)[O-])cc1)Nc1ccccc1-2 (stereo not drawn),114,x
CSc1nnc2c(n1)OC1(Nc3ccccc3-2)C(=O)Nc2ccc([N+](=O)[O-])cc21 (stereo not drawn),86,34*
Cc1ccc(-n2nc3c(c2NC(=O)c2ccc(S(=O)(=O)N4CCCCC4)cc2)CSC3)c(C)c1,103,6
Cc1cccc(-n2nc3c(c2NC(=O)c2ccc(S(=O)(=O)N4CCCCC4)cc2)CSC3)c1C,109,x
Cc1ccc(-n2nc3c(c2NC(=O)c2ccc(S(=O)(=O)N4CCOCC4)cc2)CSC3)c(C)c1,109,90*
COc1ccc(-n2nc3c(c2NC(=O)c2ccc(S(=O)(=O)N4CCCC4)cc2)CSC3)cc1,104,58*
Cc1ccccc1-n1nc2c(c1NC(=O)c1ccc(S(=O)(=O)N3CCCCC3)cc1)CSC2,104,40*
COc1ccc(-n2nc3c(c2NC(=O)c2ccc(S(=O)(=O)N4CCCCC4)cc2)CSC3)cc1,102,32
O=C(NCCC1=CCCCC1)c1cccn1-c1cccnc1,109,-32
Cc1ccc(/C=C2/CC(C)C/C(=C\c3ccc(C)o3)C2=O)o1 (stereo not drawn),206,-2
Cc1ccc(/C=C2\CC/C(=C\c3ccc(C)o3)C2=O)o1,-75*,x
C=CCOn1c(=O)c(=O)n(OCC=C)c2ccccc21,104,-19
Cc1nc2cc(C(=O)N3CCN(C)CC3)ccc2n1-c1ccccc1,110,19
CCOc1ccc(-c2[nH]nc3c2C2(C(=O)Nc4ccc(C)c(Br)c42)C(C#N)=C(N)O3)cc1 (stereo not drawn),115,x
O=c1c2ccccc2c2ccccc2c(=O)n1Cc1ccccn1,99,x
C=CCn1c(/C=C/C=C2N(CC)c3cc(Cl)c(Cl)cc3N2CC)[n+](CCCS(=O)(=O)[O-])c2cc(Cl)c(Cl)cc21,169,x
CC(=O)OCCN1C(=C/C=C/c2n(CCOC(C)=O)c3cc(Cl)c(Cl)cc3[n+]2CCOC(C)=O)N(CCOC(C)=O)c2cc(Cl)c(Cl)cc21,282,x
CCCCN1/C(=C/C=C/c2n(CCCC)c3cc(Cl)c(Cl)cc3[n+]2C)N(C)c2cc(Cl)c(Cl)cc21,37*,x

3 structures already listed, sorted by heavy-atom count, low to high.
SMILES,GIV-Gai inh,HCMV NEC inh
C=CCOn1c(=O)c(=O)n(OCC=C)c2ccccc21,104,-19
CSc1nnc2c(n1)OC(c1ccc([N+](=O)[O-])cc1)Nc1ccccc1-2 (stereo not drawn),114,x
CCCCN1/C(=C/C=C/c2n(CCCC)c3cc(Cl)c(Cl)cc3[n+]2C)N(C)c2cc(Cl)c(Cl)cc21,37*,x

(more compounds)
SMILES	GIV-Gai inh	HCMV NEC inh
CCCCCN1/C(=C\C=C\c2n(CC)c3cc(Cl)c(Cl)cc3[n+]2CCCCC)N(CC)c2cc(Cl)c(Cl)cc21	-62*	x
CCC(C)/C(=N\O)c1ccccc1 (stereo not drawn)	102	-20
O=C(COc1ccc(Br)cc1)Nc1noc(-c2ccccc2)n1	100	-12
c1ccc(C(c2ccccc2)N2CCN(c3nn4nnnc4c4ccccc34)CC2)cc1	100	-29
Cc1n[nH]c(C)c1N1C(=O)c2cccc3c(N4CCCCC4)ccc(c23)C1=O	-6.8*	-116
O=C1c2cccc3c(N4CCOCC4)ccc(c23)C(=O)N1c1ccccc1	94	-91
CCc1nnc(NC(=O)COc2cc(C)c(Cl)c(C)c2)s1	107	x
O=C1/C(=C/c2cccs2)CN(Cc2ccccc2)C/C1=C\c1cccs1	107	-20
CC1C/C(=C/c2cccn2C)C(=O)/C(=C/c2cccn2C)C1 (stereo not drawn)	-75*	x
Cn1cccc1/C=C1\CN(Cc2ccccc2)C/C(=C\c2cccn2C)C1=O	-88*	-58
Cn1cccc1/C=C1\CC(c2ccccc2)C/C(=C\c2cccn2C)C1=O (stereo not drawn)	203	-22
CC(Oc1cccc2ccccc12)C(=O)NN1S(=O)(=O)c2ccccc2S1(=O)=O (stereo not drawn)	106	x

Copied from above (3 entries):
SMILES	GIV-Gai inh	HCMV NEC inh
Cn1cccc1/C=C1\CN(Cc2ccccc2)C/C(=C\c2cccn2C)C1=O	-88*	-58
Cn1cccc1/C=C1\CC(c2ccccc2)C/C(=C\c2cccn2C)C1=O (stereo not drawn)	203	-22
CC(Oc1cccc2ccccc12)C(=O)NN1S(=O)(=O)c2ccccc2S1(=O)=O (stereo not drawn)	106	x

The list goes on.
SMILES	GIV-Gai inh	HCMV NEC inh
CC(C)N1CCc2c(sc(NC(=O)C3=COCCO3)c2C(N)=O)C1	278	-63
CC(C)N1CCc2c(sc(N)c2C(N)=O)C1	-67*	x
CC(=O)Nc1ccc(N2C(=O)/C(=C/c3ccc([N+](=O)[O-])cc3)C=C2c2ccccc2)cc1	117	x
CC(C)CCNC(=O)C1(C)CCC(=O)N1CCCN1CCCC1 (stereo not drawn)	104	-28
CSc1ncc(Cl)c(C(=O)Nc2ccc(C)cc2)n1	x	-12
Nc1c(C(=O)Nc2ccc(F)cc2)sc2nc(-c3cccs3)cc(C(F)(F)F)c12	-12*	-48
COc1ccc(NC(=O)c2sc3nc(-c4ccc(OC)cc4)cc(C(F)(F)F)c3c2N)cc1	96	-41
C[n+]1cccc2ccc(O)cc21	-7.5*	-53
Oc1ccc2ccccc2c1	x	-49
CCCCCCc1cc2cc(-c3nnc(-c4cccc(Cl)c4)o3)c(=O)oc2cc1O	7.6*	-49
O=c1oc2ccccc2cc1-c1nnc(-c2cccc(Cl)c2)o1	101	5
COc1ccc(CNC(=O)C2(C)Cc3ccccc3C(=O)N2C2CCCC2)cc1 (stereo not drawn)	104	x
